Test results taken from paper PMC4591660 (Toxins, 2015).
Entries after “also recorded” stand apart in the source; their conditions may differ.

Chains of the proteins cited; added tags and fusions are not shown.
UniProt Q704Y3, whole entry: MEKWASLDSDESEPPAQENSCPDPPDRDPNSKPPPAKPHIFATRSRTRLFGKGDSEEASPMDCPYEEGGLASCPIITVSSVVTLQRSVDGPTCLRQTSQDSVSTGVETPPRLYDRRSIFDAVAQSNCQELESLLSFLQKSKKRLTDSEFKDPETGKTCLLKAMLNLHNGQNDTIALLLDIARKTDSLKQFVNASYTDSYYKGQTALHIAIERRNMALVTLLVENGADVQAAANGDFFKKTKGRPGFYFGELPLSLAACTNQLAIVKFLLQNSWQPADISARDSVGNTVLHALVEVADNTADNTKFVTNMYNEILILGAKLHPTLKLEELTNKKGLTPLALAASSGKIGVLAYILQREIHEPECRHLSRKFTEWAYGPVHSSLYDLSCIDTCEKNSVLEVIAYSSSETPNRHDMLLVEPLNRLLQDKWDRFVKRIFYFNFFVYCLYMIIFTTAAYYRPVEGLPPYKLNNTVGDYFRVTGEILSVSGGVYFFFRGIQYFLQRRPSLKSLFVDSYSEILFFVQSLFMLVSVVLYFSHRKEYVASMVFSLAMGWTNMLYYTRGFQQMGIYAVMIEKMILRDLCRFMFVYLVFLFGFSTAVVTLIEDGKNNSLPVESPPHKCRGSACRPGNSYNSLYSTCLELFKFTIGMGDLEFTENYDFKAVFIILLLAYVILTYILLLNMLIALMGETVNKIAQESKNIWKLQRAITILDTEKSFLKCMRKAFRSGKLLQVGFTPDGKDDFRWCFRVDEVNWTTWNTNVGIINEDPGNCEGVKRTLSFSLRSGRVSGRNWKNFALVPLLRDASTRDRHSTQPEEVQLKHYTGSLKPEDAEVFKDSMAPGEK
UniProt P16390, whole entry: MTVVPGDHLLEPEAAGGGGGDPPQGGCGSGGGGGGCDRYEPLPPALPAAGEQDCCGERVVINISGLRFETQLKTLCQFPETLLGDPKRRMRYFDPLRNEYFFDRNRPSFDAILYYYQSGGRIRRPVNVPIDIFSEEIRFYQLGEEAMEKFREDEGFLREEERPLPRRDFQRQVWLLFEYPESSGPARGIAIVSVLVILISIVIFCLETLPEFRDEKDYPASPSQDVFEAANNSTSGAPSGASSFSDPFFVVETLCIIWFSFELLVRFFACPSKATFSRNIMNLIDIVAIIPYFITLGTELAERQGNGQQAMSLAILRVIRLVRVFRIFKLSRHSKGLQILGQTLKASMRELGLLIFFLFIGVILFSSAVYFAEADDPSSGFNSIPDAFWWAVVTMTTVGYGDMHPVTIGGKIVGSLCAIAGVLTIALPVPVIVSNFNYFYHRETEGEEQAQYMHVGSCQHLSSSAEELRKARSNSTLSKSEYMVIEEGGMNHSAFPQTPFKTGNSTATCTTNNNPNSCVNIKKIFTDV

Assays:
mTRPV1 = biological target: T1, mTRPV1 (Mus musculus, UniProt Q704Y3); format: cell-based; settings: 20 °C
T1 construct: expressed in transfected cells; host or cells: HEK293T

WT mice = format: in vivo, C57BL/6J; settings: 10 μL intraplantar, left hind paw, 30 min recording, n = 10
mKv1.1 = settings: 1 mM; 300-ms depolarizing potential of 0 mV from holding potential of −80 mV; 20 °C; pH 7.3
rat hippocampal neurons = settings: ref [36]; cited from earlier work
human Kv1.3 = settings: ref [9]; cited from earlier work
mKv1.3 [1] = biological target: T2, mKv1.3 (Mus musculus, UniProt P16390); assay: cell-based
TRPV1 KO mice = format: in vivo; settings: 500 µM, 10 μL intraplantar, left hind paw; 30 min recording; n = 10; vs saline
rat Kv1.1 = settings: ref [9]; cited from earlier work
mKv1.3 [2] = biological target: T2, mKv1.3; settings: 10 µM, 20 °C
[3] = system: DRG neurons of TRPV1 KO mice; format: cell-based, mouse; settings: BmP01 300 µM, capsaicin 10 µM; * p < 0.01, n = 10

Structure (SMILES): CC(C)[C@@H]1NC(=O)[C@@H]2CSSC[C@@H]3NC(=O)[C@H](CC(=O)O)NC(=O)[C@H](CCC(=O)O)NC(=O)[C@@H](NC(=O)[C@@H](NC(=O)[C@H](C)N)[C@@H](C)O)CSSC[C@H](NC(=O)[C@H](CCCCN)NC(=O)[C@H](C)NC(=O)[C@H](CCCNC(=N)N)NC(=O)[C@H](C)NC(=O)[C@H](CC(N)=O)NC(=O)[C@H](CCC(N)=O)NC(=O)[C@H]([C@@H](C)O)NC(=O)[C@H](C)NC(=O)[C@H](CSSC[C@@H](C(=O)N[C@@H](CCC(=O)O)C(=O)N4CCC[C@H]4C(=O)N[C@@H](CCCCN)C(=O)O)NC1=O)NC(=O)[C@H](Cc1c[nH]cn1)NC(=O)[C@H](CCC(=O)O)NC(=O)[C@@H]1CCCN1C3=O)C(=O)N[C@@H](CC(=O)O)C(=O)N[C@@H](CC(N)=O)C(=O)N[C@@H](CC(=O)O)C(=O)N[C@@H](CCCCN)C(=O)N2 [BmP01]
- activation of mTRPV1, concentration dependence (mTRPV1; 1 µM, 10 µM, 100 µM, 500 µM and 1 mM, HEK293T, pH 7.2): activate the mTRPV1 channel in a dose dependent manner; also recorded: increasing activity with higher concentration to activate TRPV1 currents
- activation of TRPV1 (mTRPV1; 500 µM, HEK293T expressing mTRPV1): potently activated TRPV1; also recorded: completely activates the TRPV1 channel
- evoked currents in TRPV1-expressed HEK293T cells, ramp method (mTRPV1; HEK293T with over-expressed TRPV1, ramp method): evoked currents on TRPV1-expressed HEK293T cells; also recorded: BmP01-induced currents were elicited from TRPV1 channels; also recorded: evoked the currents in HEK293T cells with over-expressed TRPV1 channels
- pain behavior (duration of paw licking/biting) (WT mice; 500 µM, vs saline): induced pain in WT mice; also recorded: showed acute pain behavior similar to capsaicin; also recorded: potently induces pain in vivo in WT mice
- pain behavior (paw licking), dose-response (WT mice; different doses): induced acute pain in a dose dependent manner; also recorded: significant acute pain in wild type (WT) mice
- effect on mKv1.1 currents (mKv1.1): no significant effect on mKv1.1; also recorded: did not inhibit the mKv1.1 currents; also recorded: no significant change was observed on the mKv1.1 currents
- inhibition of outward K^+ currents in rat hippocampal neurons (rat hippocampal neurons): slightly inhibited
- inhibition of human Kv1.3 (human Kv1.3): rat Kv1.1 and human Kv1.3 channel blocker; also recorded: inhibited both rat Kv1.1 and human Kv1.3
- EC50 (mKv1.3 [1]): 269 ± 12.7 nM
- pain behavior (duration of paw licking/biting) (TRPV1 KO mice): lost function to induce pain in TRPV1 KO mice; also recorded: not in TRPV1 knock-out (TRPV1 KO) mice; also recorded: did not induce pain
- affinity to rat Kv1.1 (rat Kv1.1): high affinity to rat Kv1.1
- inhibition of rat Kv1.1 (rat Kv1.1): rat Kv1.1 and human Kv1.3 channel blocker; also recorded: inhibited both rat Kv1.1 and human Kv1.3
- inhibition of mKv1.3 currents (mKv1.3 [2]; 300-ms depolarizing potential of 0 mV from holding potential of −80 mV, pH 7.3): inhibited the currents on mKv1.3
- time constant of inhibition (τon) (mKv1.3 [2]; single-exponential fit): 5.04 ± 0.86 s
- time constant of washing (τoff) (mKv1.3 [2]; single-exponential fit): 6.22 ± 0.15 s
- normalized evoked currents, TRPV1 KO compared with WT DRG neurons [3]: significantly higher in WT than TRPV1 KO mice; also recorded: significantly lower in TRPV1 KO mice than in WT mice
